Assay results as given in patent US6462038B1, “Androgen receptor modulator compounds and methods” (Ligand Pharmaceuticals, Inc., priority 1999, dated 2002).

Protein sequences, listed by entry. Tags and fused reporters are not part of them. Lines headed by an entry give the natural chain unless they say otherwise; changes in a name come on top.
UniProt P10275: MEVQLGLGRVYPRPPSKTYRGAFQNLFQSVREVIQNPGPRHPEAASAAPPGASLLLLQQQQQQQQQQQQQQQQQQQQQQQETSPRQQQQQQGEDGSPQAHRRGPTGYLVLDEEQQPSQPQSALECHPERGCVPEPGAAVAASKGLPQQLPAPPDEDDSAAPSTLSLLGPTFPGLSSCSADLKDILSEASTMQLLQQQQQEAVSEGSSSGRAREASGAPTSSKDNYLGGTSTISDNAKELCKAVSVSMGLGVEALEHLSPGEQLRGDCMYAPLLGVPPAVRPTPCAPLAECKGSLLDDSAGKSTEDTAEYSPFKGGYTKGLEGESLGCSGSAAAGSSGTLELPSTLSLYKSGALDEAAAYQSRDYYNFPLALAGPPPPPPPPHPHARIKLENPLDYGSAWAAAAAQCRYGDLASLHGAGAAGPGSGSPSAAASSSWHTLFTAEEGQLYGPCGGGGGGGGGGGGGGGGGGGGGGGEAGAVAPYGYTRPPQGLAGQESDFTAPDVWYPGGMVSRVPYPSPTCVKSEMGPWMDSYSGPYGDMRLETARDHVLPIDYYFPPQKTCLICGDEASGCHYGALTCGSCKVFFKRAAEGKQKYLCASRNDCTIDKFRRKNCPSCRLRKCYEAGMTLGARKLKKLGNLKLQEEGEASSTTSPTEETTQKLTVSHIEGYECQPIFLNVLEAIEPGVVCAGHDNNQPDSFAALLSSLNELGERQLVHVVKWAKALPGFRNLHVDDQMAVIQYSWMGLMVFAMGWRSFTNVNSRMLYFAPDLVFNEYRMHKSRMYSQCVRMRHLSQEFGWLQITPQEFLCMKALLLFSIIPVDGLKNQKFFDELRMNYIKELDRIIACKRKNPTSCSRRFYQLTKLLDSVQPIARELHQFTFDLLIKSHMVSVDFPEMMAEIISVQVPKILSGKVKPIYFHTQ

Assays:
hAR [1] = target: T1, hAR (Homo sapiens, UniProt P10275); experiment: co-transfection assay, AR antagonist (in presence of DHT), CV-1 cells; type: cell-based; conditions: hAR in CV-1 cells; maximal inhibition, DHT at EC50
T1 construct: expressed in transfected cells; host or cells: CV-1 cells (African green monkey kidney fibroblasts)

hAR [2] = target: T1, hAR; experiment: co-transfection assay, AR agonist, CV-1 cells; type: cell-based; conditions: hAR in CV-1 cells; relative to maximum LUC production by reference agonist

CC1CN(CC(F)(F)F)c2cc3c(C(F)(F)F)cc(=O)[nH]c3cc2O1 (racemic) [Compound 114, (±)-1,2,3,6-Tetrahydro-3-methyl-1-(2,2,2-trifluoroethyl)-9-(trifluoromethyl)-7H-[1,4]oxazino[3,2-g]quinolin-7-one]
AR Antagonist CV-1 Cells Efficacy (%) (hAR [1]): na (na = not active (i.e. efficacy of < 20 and potency of > 10,000 nM for the cotransfection assay, and Ki > 1000 nM for the binding assay))
AR Agonist CV-1 Cells Efficacy (%) (hAR [2]): 94%

CC1CN(C)c2cc3c(C(F)(F)F)cc(=O)[nH]c3cc2O1 (racemic) [Compound 117, (±)-1,2,3,6-Tetrahydro-1,3-dimethyl-9-(trifluoromethyl)-7H-[1,4]oxazino[3,2-g]quinolin-7-one]
AR Antagonist CV-1 Cells Efficacy (%) (hAR [1]): na (na = not active (i.e. efficacy of < 20 and potency of > 10,000 nM for the cotransfection assay, and Ki > 1000 nM for the binding assay))
AR Agonist CV-1 Cells Efficacy (%) (hAR [2]): 36%

CCC1CN(CC(F)(F)F)c2cc3c(C(F)(F)F)cc(=O)[nH]c3cc2O1 (racemic) [Compound 118, (±)-3-Ethyl-1,2,3,6-tetrahydro-1-(2,2,2-trifluoroethyl)-9-(trifluoromethyl)-7H-[1,4]oxazino[3,2-g]quinolin-7-one]
AR Antagonist CV-1 Cells Efficacy (%) (hAR [1]): na (na = not active (i.e. efficacy of < 20 and potency of > 10,000 nM for the cotransfection assay, and Ki > 1000 nM for the binding assay))
AR Agonist CV-1 Cells Efficacy (%) (hAR [2]): 76%

CCC1CN(C)c2cc3c(C(F)(F)F)cc(=O)[nH]c3cc2O1 (racemic) [Compound 119, (±)-3-Ethyl-1,2,3,6-tetrahydro-1-methyl-9-(trifluoromethyl)-7H-[1,4]oxazino[3,2-g]quinolin-7-one]
AR Antagonist CV-1 Cells Efficacy (%) (hAR [1]): na (na = not active (i.e. efficacy of < 20 and potency of > 10,000 nM for the cotransfection assay, and Ki > 1000 nM for the binding assay))
AR Agonist CV-1 Cells Efficacy (%) (hAR [2]): 20%

CC1CN(CC(F)(F)F)c2cc3c(C(F)(F)F)cc(=O)[nH]c3cc2O1 (single isomer, unassigned; (+)) [Compound 116, (+)-1,2,3,6-tetrahydro-3-methyl-1-(2,2,2-trifluoroethyl)-9-(trifluoromethyl)-7H-[1,4]oxazino[3,2-g]quinolin-7-one]
AR Antagonist CV-1 Cells Efficacy (%) (hAR [1]): 35%
AR Agonist CV-1 Cells Efficacy (%) (hAR [2]): 24%

CC1CN(CC(F)(F)F)c2cc3c(C(F)(F)F)cc(=O)[nH]c3cc2O1 (single isomer, unassigned; (-)) [Compound 115, (−)-1,2,3,6-Tetrahydro-3-methyl-1-(2,2,2-trifluoroethyl)-9-(trifluoromethyl)-7H-[1,4]oxazino[3,2-g]quinolin-7-one]
AR Antagonist CV-1 Cells Efficacy (%) (hAR [1]): na (na = not active (i.e. efficacy of < 20 and potency of > 10,000 nM for the cotransfection assay, and Ki > 1000 nM for the binding assay))
AR Agonist CV-1 Cells Efficacy (%) (hAR [2]): 82%

CN1CCOc2cc3[nH]c(=O)cc(C(F)(F)F)c3cc21 [Compound 101, 1,2,3,6-Tetrahydro-1-methyl-9-(trifluoromethyl)-7H-[1,4]oxazino[3,2-g]quinolin-7-one]
AR Antagonist CV-1 Cells Efficacy (%) (hAR [1]): na (na = not active (i.e. efficacy of < 20 and potency of > 10,000 nM for the cotransfection assay, and Ki > 1000 nM for the binding assay))
AR Agonist CV-1 Cells Efficacy (%) (hAR [2]): 56%

CCN1CCOc2cc3[nH]c(=O)cc(C(F)(F)F)c3cc21 [Compound 103, 1-Ethyl-1,2,3,6-tetrahydro-9-(trifluoromethyl)-7H-[1,4]oxazino[3,2-g]quinolin-7-one]
AR Agonist CV-1 Cells Efficacy (%) (hAR [2]): 92%

O=c1cc(C(F)(F)F)c2cc3c(cc2[nH]1)OCCN3CC(F)(F)F [Compound 105, 1,2,3,6-Tetrahydro-1-(2,2,2-trifluoroethyl)-9-(trifluoromethyl)-7H-[1,4]oxazino[3,2-g]quinolin-7-one]
AR Antagonist CV-1 Cells Efficacy (%) (hAR [1]): na (na = not active (i.e. efficacy of < 20 and potency of > 10,000 nM for the cotransfection assay, and Ki > 1000 nM for the binding assay))
AR Agonist CV-1 Cells Efficacy (%) (hAR [2]): 88%

CCCN1CCOc2cc3[nH]c(=O)cc(C(F)(F)F)c3cc21 [Compound 111, 1,2,3,6-Tetrahydro-1-propyl-9-(trifluoromethyl)-7H-[1,4]oxazino[3,2-g]quinolin-7-one]
AR Antagonist CV-1 Cells Efficacy (%) (hAR [1]): na (na = not active (i.e. efficacy of < 20 and potency of > 10,000 nM for the cotransfection assay, and Ki > 1000 nM for the binding assay))
AR Agonist CV-1 Cells Efficacy (%) (hAR [2]): 88%

CC(C)CN1CCOc2cc3[nH]c(=O)cc(C(F)(F)F)c3cc21 [Compound 112, 1,2,3,6-Tetrahydro-1-isobutyl-9-(trifluoromethyl)-7H-[1,4]oxazino[3,2-g]quinolin-7-one]
AR Antagonist CV-1 Cells Efficacy (%) (hAR [1]): na (na = not active (i.e. efficacy of < 20 and potency of > 10,000 nM for the cotransfection assay, and Ki > 1000 nM for the binding assay))
AR Agonist CV-1 Cells Efficacy (%) (hAR [2]): 80%
